scFv variants of Ab-14 (heavy chain) against a SARS-CoV-2 spike peptide

The measurements come from Li et al. 2023 (doi:10.1038/s41467-023-39022-2) through the FLAb antibody collection.

The target is the same throughout: PDVDLGDISGINAS, from the HR2 region of SARS-CoV-2 spike.

Ab-14 is the parent antibody, in scFv form: VH, then three GGGGS repeats, then VL. The light chain is unchanged in all variants.
VH: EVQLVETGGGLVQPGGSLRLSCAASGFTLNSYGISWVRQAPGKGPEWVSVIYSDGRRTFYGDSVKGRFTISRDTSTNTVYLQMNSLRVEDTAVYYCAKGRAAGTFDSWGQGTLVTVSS
VL: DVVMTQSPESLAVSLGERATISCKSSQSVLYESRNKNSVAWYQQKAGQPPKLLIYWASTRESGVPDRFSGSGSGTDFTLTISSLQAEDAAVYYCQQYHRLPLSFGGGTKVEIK

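The starting antibody came from a phage panning campaign against this peptide. The variants were designed computationally from a first round of random CDR variants and then made and measured. Several design methods are mixed in this list. The scFvs were displayed on barcoded MATa yeast, the peptide on MATalpha yeast. The frequency of each diploid, read from paired DNA barcodes, reflects how well the two displayed proteins bind. Scores were corrected for input abundance and mapped to Kd with protein pairs of known affinity run in the same pool. There are six technical replicates.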

Substitutions are numbered in sequence along the VH above, starting at 1 (not Kabat). Variants here have at most six changes. Affinities are written as log10 Kd with Kd in nM; a lower number is a better binder. The mean shown is taken over the replicates in which the pair was detected. Where no diploid with the target was found in any replicate, the entry reads "no signal": below detection, most likely a poor binder, though not proof of it. Entries are sorted by rising average, undetected variants last. Values of this round are not directly comparable with the first-round values of the same sequences. In the paper, a design with two or fewer of six values counts as a poor binder. Some sequences occur more than once in the pool; their replicates are pooled. Three control strains display no target. For all heavy chain designs, 1% of the pairings with them gave a signal, with a median of 2.08 and one signal in twenty below 0.84, so weak values seen in few replicates may be background. The parent sequence was in this pool as ten entries: three were never detected, three once, and four in most replicates, with averages from 0.34 to 2.37.

The variant T28Y S31E A101Q gave -0.47 (1 of 6 replicates).
The variant T28S N30E S31E A101T gave -0.38 (6 of 6 replicates).
The variant T28S G61A R100N A101V gave -0.14 (6 of 6 replicates).
The variant T28E N30D S31K A101T gave -0.12 (6 of 6 replicates).
The variant T28S R100Q A101E S107K gave -0.09 (6 of 6 replicates).
The variant T28Q S31E A101T S107R gave 0.45 (6 of 6 replicates).
The variant T28S G61I R100N S107L gave 0.61 (4 of 6 replicates).
The variant F27D G61T R100D A101V D106S gave 0.63 (6 of 6 replicates).
The variant T28D G61S R100N gave 0.65 (6 of 6 replicates).
The variant T28S G61V gave 1.18 (2 of 6 replicates).
The variant T28E S31E G61H S107Q gave 1.28 (6 of 6 replicates).
The variant G61S A101V gave 1.29 (11 of 12 replicates).
The variant N30E S31D R100Q A102T gave 1.45 (1 of 6 replicates).
The variant G26K T28D R100E A101T gave 1.74 (5 of 6 replicates).
The variant G26M T28D R56K A101T gave 1.79 (4 of 6 replicates).
The variant T28W S31E A101T S107F gave 1.87 (4 of 6 replicates).
The variant S31D T58Q F59Q G61I gave 1.92 (6 of 6 replicates).
The variant S31E S35Q V64G G103V S107Q gave no signal (0 of 6 replicates).
The variant T28R G61Q R100Q A101N gave no signal (0 of 6 replicates).
The variant S31E R56H G61S T104K gave no signal (0 of 6 replicates).
The variant N30D Y52V F105A D106T gave no signal (0 of 6 replicates).
The variant L29D S53A F105N D106K gave no signal (0 of 6 replicates).
The variant N30E F59S S63D gave no signal (0 of 6 replicates).
The variant S31E R100T T104C gave no signal (0 of 6 replicates).
The variant R56Q A101V A102H gave no signal (0 of 6 replicates).
The variant T28H I34V S107P gave no signal (0 of 6 replicates).
The variant L29C S31E Y60V G61T A101F A102V gave no signal (0 of 6 replicates).
The variant L29P T58K D106P gave no signal (0 of 6 replicates).
The variant R100K A101P gave no signal (0 of 6 replicates).
The variant S31D G103D D106I gave no signal (0 of 6 replicates).
The variant S31E R56Q G61S D106T gave no signal (0 of 6 replicates).

The closing 2 entries, repeated:

S31D G103D D106I: no signal (0 of 6 replicates).
S31E R56Q G61S D106T: no signal (0 of 6 replicates).